AlphaSeq binding of Ab-14 light chain variants to a spike HR2 peptide

Data: MIT Lincoln Laboratory AlphaSeq set, Li et al. 2023, doi:10.1038/s41467-023-39022-2, as distributed in FLAb.

Target: peptide PDVDLGDISGINAS, taken from heptad repeat 2 (HR2) of SARS-CoV-2 spike.

Parent scFv Ab-14: VH joined to VL by a (GGGGS)3 linker. Changes lie in the light chain CDRs alone.
VH: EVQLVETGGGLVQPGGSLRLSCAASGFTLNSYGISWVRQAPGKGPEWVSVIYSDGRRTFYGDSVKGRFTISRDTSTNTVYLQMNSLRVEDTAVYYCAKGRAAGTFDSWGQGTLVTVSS
VL: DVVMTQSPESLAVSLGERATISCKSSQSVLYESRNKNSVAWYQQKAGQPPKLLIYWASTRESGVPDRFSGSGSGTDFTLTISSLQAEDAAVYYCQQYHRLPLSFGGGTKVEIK

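The starting antibody came from a phage panning campaign against this peptide. This is the validation round: designs drawn from the data on random variants, tested in the same kind of assay. Group labels follow the data file (Ctrl: baseline library sampled from a position-specific scoring matrix, with some repeated check sequences; GP: Gaussian process model; HC: hill climbing; Gen: genetic algorithm; Gibbs: Gibbs sampling; a sequence that several methods proposed may carry one label only). In AlphaSeq, yeast of one mating type display the scFv and yeast of the other type display the target. After mating in shaken culture at 30 °C for 16 h, diploids were selected and their barcode pairs sequenced. A regression on co-assayed BCL2-family reference pairs converts the normalised counts of each replicate to an apparent Kd. Mating was done six times.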

Changes read parent residue, position, new residue, counted from the first residue of the VL shown. Variants here have at most six changes. The Kd shown is the geometric mean over detected replicates; a lower Kd is a better binder. A pair that was not seen in any replicate is written "nd"; this usually means weak binding, but a binder can also be missed.

changes	group	Kd (apparent)	seen in	empty controls
K36A/W56D/S103W	Ctrl	2.7 nM	6/6	4/18
S26P/W56S/H98V	Ctrl	750 pM	6/6	1/18
S25L/S26P/V29G/W56N/S62Q	GP_Gen	350 pM	6/6	1/18
S25T/Q27G/H98Q	Ctrl	120 nM	4/6	0/18
S38P/W56G	Ctrl	21 nM	6/6	1/18
S25V/L30D/W56N	GP_Gen	550 pM	6/6	4/18
S25L/Q27M/S33C/W56T	Ctrl	5.2 nM	5/6	0/18
L30G/A57C/Q96R	Ctrl	nd	0/6	0/18
S26C/L100M	Ctrl	nd	0/6	0/18
V29G/Y31Q/W56S	Ctrl	2.6 nM	6/6	1/18
S25L/S26P/S28G/W56G/T59F	GP_HC	940 pM	6/6	0/18
S25I/L30F	Ctrl	7.1 nM	6/6	1/18
Q95T	Ctrl	nd	0/6	0/18
V29C/R34K/W56S	Ctrl	900 pM	6/6	0/18
V29G/S58M/Q96W/H98K	Ctrl	52 nM	2/6	0/18
V29Y/K36V/W56G/E61D	GP_HC	950 pM	6/6	2/18
S25Y/W56D/E61S	GP_HC	1.0 nM	6/6	1/18
R34G/W56K/A57D	Ctrl	nd	0/6	0/18
S33G/W56F/S62N/Q96N/Y97H	Ctrl	91 nM	2/6	2/18
S25L/S26R/W56Q/S103T	GP_HC	1.2 nM	6/6	1/18
Q95P	Ctrl	nd	0/6	0/18
S25V/V29Q/S38N/W56E	GP_Gen	450 pM	6/6	2/18
V29Y/R34E/P101L	Ctrl	320 nM	1/6	1/18
S25R/Q96T	Ctrl	21 µM	1/6	0/18
S25L/S33E/W56N/T59Q/E61L	GP_Gen	810 pM	6/6	2/18
S25V/V29F/S38N/W56E	GP_Gen	380 pM	6/6	2/18
S25F/E32S	Ctrl	9.7 nM	6/6	0/18
S25L/V29E/N35M/W56N/S62D	GP_Gen	640 pM	6/6	2/18
S25L/S26A/V29G/W56K/Q96S/S103D	Ctrl	7.6 nM	6/6	1/18
S25L/V29M/W56E/E61L/Q96D	GP_Gibbs	1.1 nM	6/6	0/18
S25F/V29F/W56G	GP_Gen	480 pM	6/6	0/18
S25I/L30G/S38G/W56Q	Ctrl	4.5 nM	6/6	1/18
S25F/S26Q/L30G/E32Q/S33T/W56D	GP_Gibbs	1.5 nM	6/6	1/18
K24H/S25V/Q27P/W56E	GP_HC	670 pM	6/6	0/18
V29L/E61N	Ctrl	19 nM	6/6	2/18
S28G/V29L/W56S	Ctrl	3.1 nM	6/6	0/18
S25L/V29E/W56H/E61M	GP_Gen	3.2 nM	6/6	0/18
S25L/Q27I/V29D/W56E/S62Q	GP_HC	660 pM	6/6	0/18
S25M/V29A	Ctrl	6.0 nM	6/6	1/18
S62F/H98F	Ctrl	140 nM	2/6	0/18
S25L/Q27G/V29M/S38A/W56E	GP_Gen	430 pM	6/6	0/18
S25L/S26Q/L30P/W56N/E61L	GP_Gen	540 pM	6/6	0/18
S25L/Y31G/R34Q/W56R/L100F	Ctrl	34 nM	6/6	0/18
S25L/V29D/L30E/E32Q/W56N/E61Y	GP_Gibbs	470 pM	6/6	0/18
V29E/N35P/Q96A	Ctrl	52 nM	3/6	0/18

Picked from the list: the 4 lowest averages where every replicate gave a value.

changes	group	Kd (apparent)	seen in	empty controls
S25L/S26P/V29G/W56N/S62Q	GP_Gen	350 pM	6/6	1/18
S25V/V29F/S38N/W56E	GP_Gen	380 pM	6/6	2/18
S25L/Q27G/V29M/S38A/W56E	GP_Gen	430 pM	6/6	0/18
S25V/V29Q/S38N/W56E	GP_Gen	450 pM	6/6	2/18

Three control strains display no target. For all light chain designs, 4% of the pairings with them gave a signal, with a median of 430 nM and one signal in twenty below 38 nM, so weak values seen in few replicates may be background. The control count says in how many pairings with the empty strains this scFv gave a signal. The authors averaged sequences with at least three values out of six and counted those with two or fewer as poor binders. Values of this round are not directly comparable with the first-round values of the same sequences.